The text below walks through data of PubChem BioAssay AID624202 (National Center for Advancing Translational Sciences (NCATS), 2012).

SMILES strings stand for the structures. The list shows a part of the results, in another mix than the full data. The source made the active and inactive calls. Calls come from the whole dose curve; as a rule, active = well fitted activation curve with a large enough effect; inconclusive = small, poorly fitted or top-dose-only effect; inactive = no such curve, though single readings can be large or run the other way.

The nature of this assay: qHTS Assay to Identify Small Molecule Activators of BRCA1 Expression. Note: nearly all actives have a fitted effect of over 80% in size. Conditions: MCF7-BRCA1-FFLuc reporter, luminescence, 48 h, scaled: vehicle 0%, 10 µM genistein 100%; at 46.1 µM (top of the series). For orientation: Quantitative high-throughput screening tests each substance at several concentrations.
With `Cc1ccc(Nc2c([N+](=O)[O-])cc([N+](=O)[O-])cc2[N+](=O)[O-])cc1`, the activation was inactive: -66.8%.
To `Fc1ccccc1NC1CCN(Cc2ccccc2)CC1` belongs inactive: 5.86%.
Under `Cc1ccc(C(=O)NCC2(N3CCCCC3)CCCCC2)o1` stands inactive: 0.3%; under `Cc1ccc(NC2(C#N)CCN(Cc3ccccc3)CC2)cc1`, inactive: -3.97%.
Under `CCC(c1nnnn1C1CCCCC1)N1CCC(n2c(=O)[nH]c3ccccc32)CC1` (stereo not given) stands inactive: 4.3%.
In the case of `CC(=O)N(c1ccccc1)C1CCNCC1`, the activation is inactive: -3.95%.
As to `COc1cccc(C(c2nnnn2C2CCCCC2)N2CCC(n3c(=O)[nH]c4ccccc43)CC2)c1OC` (stereo not given), the activation is inactive: -27.2%.
Consider `O=c1[nH]c2ccccc2n1C1CCN(C(c2ccnc3ccccc23)c2nnnn2C2CCCCC2)CC1` (stereo not given), for which the activation is inactive: -42.7%.
Under `COc1cc(OC)cc(C(=O)NCC2(N3CCCCC3)CCCCC2)c1` stands inactive: -3.5%; under `CC(C)(C)n1nnnc1C(c1cccc2ccccc12)N1CCC(n2c(=O)[nH]c3ccccc32)CC1` (stereo not given), inactive: -62.7%; under `CN(C)C1(CNC(=O)c2cccc(C#N)c2)CCCCC1`, inactive: 5.23%.
Under `O=c1[nH]c2ccccc2n1C1CCN(C(c2ccccc2)c2nnnn2C2CCCC2)CC1` (stereo not given) stands inactive: -19.1%.
On to `CCCN1CCC(Nc2cc(OC)cc(OC)c2)CC1`, for which the activation was inactive: -22.5%.
With `Cc1cc(N(CCCl)CCCl)ccc1C=O`, the activation is inactive: -48.7%.
Under `O=C(NCC1(N2CCOCC2)CCCCC1)c1ccccc1` stands inactive: 3.91%; under `c1ccc(CN2CCC(Nc3ccccc3)CC2)cc1`, inactive: -7.21%.
`CCOC(=O)C(CC)C1=NC(C)(C)Cc2ccccc21.O=[N+]([O-])c1cc([N+](=O)[O-])c(O)c([N+](=O)[O-])c1` (stereo not given): the activation was inactive: 3.8%.
With `N#Cc1ccc(C(=O)NCC2(N3CCCCC3)CCCCC2)cc1`, the activation was inactive: 17%.
With `O=C(NCC1(N2CCOCC2)CCCCC1)c1ccccc1[N+](=O)[O-]`, the activation is inactive: 0.515%.
Under `O=C(NCC1(N2CCOCC2)CCCCC1)c1ccc([N+](=O)[O-])cc1` stands inactive: -27.7%; under `CC(C)(C)OC(=O)N1CCC(N(C(=O)c2ccccc2)c2ccc(Cl)cc2)CC1`, inactive: -36.7%; under `O=C(O)c1cccc(Nc2c([N+](=O)[O-])cc([N+](=O)[O-])cc2[N+](=O)[O-])c1`, inactive: -25%.
Take `O=c1[nH]c2ccccc2n1C1CCN(C(c2cccs2)c2nnnn2C2CCCC2)CC1` (stereo not given): the activation was inactive: -34.1%.
To `O=C(OC1CN2CCC1CC2)C1c2ccccc2C=Cc2ccccc21` (stereo not given) belongs inactive: -18.2%.
To `CCc1cc(C(=O)NCC2(N3CCCCC3)CCCCC2)sc1C` belongs inactive: -78.9%.
To `CCCCn1nnnc1C(c1cccc(OC)c1OC)N1CCC(n2c(=O)[nH]c3ccccc32)CC1` (stereo not given) belongs inactive: -46.5%; to `COc1cccc(C(c2nnnn2C(C)(C)C)N2CCC(n3c(=O)[nH]c4ccccc43)CC2)c1OC` (stereo not given), inactive: -21.9%; to `CCOC(=O)N1CCC(Nc2ccc(C)cc2)CC1`, inactive: 5.69%.
As to `N/C(=N\O)c1c(N)no[n+]1[O-]`, the activation is inactive: 3.56%.
For the compound `O=c1[nH]c2ccccc2n1C1CCN(C(c2cccs2)c2nnnn2C2CCCCC2)CC1` (stereo not given), the activation was inactive: -44.9%.
Regarding `O=c1[nH]c2ccccc2n1C1CCN(C(c2ccnc3ccccc23)c2nnnn2C2CCCC2)CC1` (stereo not given), the activation is inactive: -0.248%.
`COc1ccc(C(=O)NCC2(N3CCOCC3)CCCCC2)cc1OC`: the activation was inactive: -2.68%.
To `COc1cc(C(=O)NCC2(N3CCOCC3)CCCCC2)cc(OC)c1C` belongs inactive: -9.73%; to `CCCCn1nnnc1C(c1ccccc1)N1CCC(n2c(=O)[nH]c3ccccc32)CC1` (stereo not given), inactive: 0%; to `O=C(NCC1(N2CCOCC2)CCCCC1)c1cc(Br)ccc1Cl`, inactive: -26.8%.
